# ChEMBL document CHEMBL1134160 (Bioorg Med Chem Lett, 2001)
# By UniProt entry, the sequences of proteins in these tests, tags left out. Residues count along the entry.
# UniProt A5X5Y0, 26-456 limits assumed: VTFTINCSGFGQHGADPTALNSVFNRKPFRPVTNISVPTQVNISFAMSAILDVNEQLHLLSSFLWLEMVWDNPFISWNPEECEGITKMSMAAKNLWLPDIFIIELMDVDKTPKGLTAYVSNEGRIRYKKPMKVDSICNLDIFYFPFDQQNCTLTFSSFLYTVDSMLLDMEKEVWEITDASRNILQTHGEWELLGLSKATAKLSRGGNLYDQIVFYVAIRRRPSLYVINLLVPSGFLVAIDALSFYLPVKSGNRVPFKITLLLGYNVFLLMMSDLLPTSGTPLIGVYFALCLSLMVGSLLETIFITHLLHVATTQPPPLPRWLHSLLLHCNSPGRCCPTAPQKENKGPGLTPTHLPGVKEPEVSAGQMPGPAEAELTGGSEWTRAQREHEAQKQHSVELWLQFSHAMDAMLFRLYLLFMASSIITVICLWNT
# UniProt O95264, 22-441 limits assumed: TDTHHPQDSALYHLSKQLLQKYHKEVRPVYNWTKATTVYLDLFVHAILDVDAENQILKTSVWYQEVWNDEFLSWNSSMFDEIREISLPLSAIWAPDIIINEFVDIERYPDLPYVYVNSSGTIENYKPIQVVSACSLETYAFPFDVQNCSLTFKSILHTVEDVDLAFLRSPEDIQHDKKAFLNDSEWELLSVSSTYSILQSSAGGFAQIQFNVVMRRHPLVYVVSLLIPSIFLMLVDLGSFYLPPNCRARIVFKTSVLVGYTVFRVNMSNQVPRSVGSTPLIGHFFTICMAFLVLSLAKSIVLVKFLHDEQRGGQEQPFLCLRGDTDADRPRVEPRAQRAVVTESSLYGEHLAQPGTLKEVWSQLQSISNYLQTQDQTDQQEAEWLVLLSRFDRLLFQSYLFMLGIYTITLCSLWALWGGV
# UniProt P46098, 24-478 limits assumed: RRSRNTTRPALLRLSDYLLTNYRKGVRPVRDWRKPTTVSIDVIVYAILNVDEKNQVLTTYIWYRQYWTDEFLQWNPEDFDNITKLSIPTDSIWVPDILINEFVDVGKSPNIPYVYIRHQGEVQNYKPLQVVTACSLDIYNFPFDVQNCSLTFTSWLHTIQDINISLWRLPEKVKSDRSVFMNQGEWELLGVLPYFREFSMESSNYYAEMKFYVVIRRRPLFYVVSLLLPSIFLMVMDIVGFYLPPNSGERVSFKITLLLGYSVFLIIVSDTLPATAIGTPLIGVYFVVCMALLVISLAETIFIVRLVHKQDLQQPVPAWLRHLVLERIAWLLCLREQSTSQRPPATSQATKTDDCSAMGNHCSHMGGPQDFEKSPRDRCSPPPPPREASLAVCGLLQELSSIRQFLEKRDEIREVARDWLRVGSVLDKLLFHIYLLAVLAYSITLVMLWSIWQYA
# UniProt Q70Z44, 25-454 limits assumed: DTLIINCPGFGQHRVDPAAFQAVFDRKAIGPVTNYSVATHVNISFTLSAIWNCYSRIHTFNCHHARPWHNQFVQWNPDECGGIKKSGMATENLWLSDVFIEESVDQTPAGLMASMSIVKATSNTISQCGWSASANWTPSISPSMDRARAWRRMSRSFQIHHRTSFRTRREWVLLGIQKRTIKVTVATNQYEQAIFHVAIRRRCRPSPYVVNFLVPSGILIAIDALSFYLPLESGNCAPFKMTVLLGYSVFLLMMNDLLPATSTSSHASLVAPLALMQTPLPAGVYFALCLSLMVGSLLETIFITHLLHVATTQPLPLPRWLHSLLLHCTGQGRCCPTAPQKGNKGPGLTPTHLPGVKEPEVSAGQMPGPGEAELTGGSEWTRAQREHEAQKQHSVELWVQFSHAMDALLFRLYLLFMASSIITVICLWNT
# UniProt Q8WXA8, 28-447 limits assumed: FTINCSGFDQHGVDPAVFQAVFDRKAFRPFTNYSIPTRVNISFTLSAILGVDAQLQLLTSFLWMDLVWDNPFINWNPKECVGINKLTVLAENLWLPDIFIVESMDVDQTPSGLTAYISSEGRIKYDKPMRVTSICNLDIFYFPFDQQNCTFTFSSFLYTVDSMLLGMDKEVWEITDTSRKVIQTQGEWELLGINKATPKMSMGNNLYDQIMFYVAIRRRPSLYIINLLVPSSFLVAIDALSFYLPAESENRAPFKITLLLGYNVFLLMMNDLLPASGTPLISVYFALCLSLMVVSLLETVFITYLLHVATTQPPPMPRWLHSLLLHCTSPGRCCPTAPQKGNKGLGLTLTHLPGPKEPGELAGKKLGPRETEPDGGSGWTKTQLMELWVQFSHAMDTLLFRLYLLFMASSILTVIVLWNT
# Molecular target: Serotonin 3 (5-HT3) receptor (UniProt A5X5Y0+O95264+P46098+Q70Z44+Q8WXA8)
smiles,measurement,value
O=C(OC1CN2CCC1CC2)c1c[nH]c2ccccc12 (stereo unspecified),Ki,1.1 nM
